From article PMC7357845 come the findings set out here.

pKd: −log10 of the molar value.

The target of this assay is untagged ZASP-S WT (human) (UniProt O75112). The experiment in a line: SPR.

Turning to “rabbit skeletal muscle G-actin (from UniProt P68135 1-377) (natural protein)”, the pKd (in general, the Kd on a negative log10 scale, so that one unit is a factor of ten) is 7.60.
